# According to patent publication US20240261426A1, “CONJUGATES COMPRISING PHOSPHOANTIGENS AND THEIR USE IN THERAPY” (BYONDIS B.V., priority 2021, published 2024):
# System: NK-cells
# Assay: Functional assay with pretreated HER2-positive cell lines: NK-cell activation
# Assay type: cell-based, human
substance,measurement,setting,value
trastuzumab: Anti-Her2 MoAb,"activation of NK-cells, in words",preincubated HCT-116 cells,did not display notable NK-cell activation
same,"activation of NK-cells, in words","pretreated BT-474, SK-BR-3 and SK-OV-3 cells",also activated NK-cells
